Test results as given in patent US11408891B2, “Imaging agent” (University of Lancaster, priority 2017, dated 2022).

Tested on: HaCaT cells
Conditions: HaCaT cells incubated for 48 hours at the indicated concentrations (FIG. 3)
Method: HaCaT cells were grown on glass coverslips under the same conditions as in described in Steel 2015 referred to herein. […] The coverslips were then washed in PBS and mounted by inversion on a glass slide. Images were captured on a Zeiss LSM 850 Meta laser scanning confocal microscope.

Substance: PtMe3bpy-S-glutathione [compound A]
- toxicity: low toxicity
